Measured values published in publication PMC11405833, “Targeted sulfur(VI) fluoride exchange-mediated covalent modification of a tyrosine residue in the catalytic pocket of tyrosyl-DNA phosphodiesterase 1” (Communications Chemistry, 2024).

Amino acid sequences for entries named in this document (tags omitted). Residues count along the entry.
UniProt Q9NUW8, 148-608: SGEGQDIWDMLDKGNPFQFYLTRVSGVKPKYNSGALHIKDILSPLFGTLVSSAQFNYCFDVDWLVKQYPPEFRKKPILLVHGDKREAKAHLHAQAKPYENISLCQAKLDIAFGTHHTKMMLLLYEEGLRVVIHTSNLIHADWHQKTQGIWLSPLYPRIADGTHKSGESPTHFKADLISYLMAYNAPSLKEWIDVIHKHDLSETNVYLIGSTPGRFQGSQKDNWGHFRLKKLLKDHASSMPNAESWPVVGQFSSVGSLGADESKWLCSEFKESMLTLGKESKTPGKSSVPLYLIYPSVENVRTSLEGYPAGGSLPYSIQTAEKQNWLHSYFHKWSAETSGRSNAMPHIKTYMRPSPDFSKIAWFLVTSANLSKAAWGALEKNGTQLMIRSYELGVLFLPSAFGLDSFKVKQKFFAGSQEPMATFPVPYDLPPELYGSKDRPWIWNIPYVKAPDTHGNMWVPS
UniProt Q9NUW8, whole entry: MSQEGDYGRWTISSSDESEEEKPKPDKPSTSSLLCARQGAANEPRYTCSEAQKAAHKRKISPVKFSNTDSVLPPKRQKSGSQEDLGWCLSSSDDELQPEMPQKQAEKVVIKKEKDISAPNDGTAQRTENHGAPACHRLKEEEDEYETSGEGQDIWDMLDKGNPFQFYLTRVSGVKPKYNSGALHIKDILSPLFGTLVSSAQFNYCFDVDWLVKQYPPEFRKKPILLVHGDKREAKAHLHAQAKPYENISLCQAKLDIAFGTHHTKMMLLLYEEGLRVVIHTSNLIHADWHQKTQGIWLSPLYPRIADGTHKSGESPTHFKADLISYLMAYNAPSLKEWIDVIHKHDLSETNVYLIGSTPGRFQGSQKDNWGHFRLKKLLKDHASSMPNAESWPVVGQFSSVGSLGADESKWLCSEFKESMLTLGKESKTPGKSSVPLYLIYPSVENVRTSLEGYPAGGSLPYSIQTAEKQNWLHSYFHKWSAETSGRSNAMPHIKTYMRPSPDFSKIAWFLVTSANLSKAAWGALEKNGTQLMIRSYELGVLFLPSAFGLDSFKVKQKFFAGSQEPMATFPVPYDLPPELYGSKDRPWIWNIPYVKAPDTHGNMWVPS
UniProt Q9NUW8, whole entry Y204F: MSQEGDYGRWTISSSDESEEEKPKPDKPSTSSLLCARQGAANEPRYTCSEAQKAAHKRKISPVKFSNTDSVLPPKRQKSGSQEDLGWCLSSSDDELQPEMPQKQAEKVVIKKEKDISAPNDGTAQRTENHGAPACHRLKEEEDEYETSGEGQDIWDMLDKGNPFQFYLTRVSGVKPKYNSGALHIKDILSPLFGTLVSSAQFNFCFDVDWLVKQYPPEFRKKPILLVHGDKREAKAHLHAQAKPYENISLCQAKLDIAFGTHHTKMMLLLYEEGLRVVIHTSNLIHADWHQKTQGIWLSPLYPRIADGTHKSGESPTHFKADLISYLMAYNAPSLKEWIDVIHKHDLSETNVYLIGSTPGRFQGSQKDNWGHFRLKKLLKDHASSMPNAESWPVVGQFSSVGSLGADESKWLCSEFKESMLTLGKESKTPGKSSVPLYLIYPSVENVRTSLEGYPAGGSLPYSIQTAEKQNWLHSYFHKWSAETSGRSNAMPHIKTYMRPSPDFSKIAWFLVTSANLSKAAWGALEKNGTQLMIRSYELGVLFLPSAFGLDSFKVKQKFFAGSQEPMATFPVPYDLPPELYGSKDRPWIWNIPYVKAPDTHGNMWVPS

Key:
[1] = target: catalytic domain of TDP1 (residues S148-S608) (Homo sapiens, UniProt Q9NUW8); conditions: TDP1 crystals soaked with compound for 5 days
[2] = target: TDP1(148-608) (Homo sapiens, UniProt Q9NUW8); experiment: intact mass LC-MS analysis of covalent modification; assay type: binding; conditions: 50 μM compound, overnight 25 °C, 1:65 enzyme/compound
Description: The samples were diluted with water to 100 μL and analyzed by liquid chromatography coupled online with mass spectrometry (LC-MS)[67]. Separation was performed on a Vanquish Flex chromatographic system (Thermo) using a MabPac reversed-phase column (4 μm, 1500 Å, 3 ×50 mm, Thermo) maintained at 50 °C. The labeled proteins were resolved at 0.5 mL/min over a 15 min gradient of buffer B (47.5% acetonitrile, 47.5% isopropanol, 5% water, 0.2% formic acid (FA)) from 2 to 100% followed by re-equilibration at 2% buffer B (total run time 20 min) against buffer A (5% acetonitrile, 0.2% FA in water). The eluates from the column were introduced to an Exactive Plus EMR mass spectrometer (Thermo) through a heated electrospray ionization (HESI) source. Intact mass spectra were acquired over 500-2000 m/z window at 35,000 FT resolution (at 200 m/z), averaging 10 microscans, with an AGC target of 3 ×10^6, max injection time of 200 ms, 80% S-lens RF level, 20 V source-induced dissociation, and capillary temperature set at 275 °C. The resulting spectra were manually averaged followed by deconvolution using the ReSpect algorithm in BioPharma Finder 2.0 (Thermo). The default deconvolution parameters used were 20 ppm deconvolution mass tolerance, 6-10 minimum adjacent charges (low and high model mass), 0% relative abundance threshold, 2:2 left/right peak shape, peak detection minimum significance measure of 1 standard deviation, 95% peak detection quality measure, peak model width factor of 1, 0.01 intensity threshold scale, and the noise compensation set to true.

[3] = target: recombinant full-length TDP1 (Homo sapiens, UniProt Q9NUW8); experiment: gel-based TDP1 fluorescence assay in vitro (wild-type TDP1); conditions: for fold increase in inhibitory potency compared with quinolone 1a: 5 min pre-incubation, vs 1a IC50 7.2 mM
[4] = target: T1, TDP1^Y204F (Homo sapiens, UniProt Q9NUW8, Y204F); experiment: gel-based TDP1 fluorescence assay in vitro (mutant TDP1 Y204F); assay type: biochemical; conditions: 5 min pre-incubation
T1 construct: was incubated for 15 min. with recombinant full-length TDP1 or TDP1^Y204F (40 pM)

Structure (SMILES) | covalent bond to Y204 in crystal structure [1] | mass shift of single covalent modification of TDP1(148-608) (loss of fluorine) [2] | fold increase in inhibitory potency compared with quinolone 1a ([3]; WT TDP1) | fold increase in inhibitory potency relative to parent compound 3c [3] | fold enhancement of IC50 by extending pre-incubation time from 5 min to 3 h ([3]; WT TDP1) | fold reduced inhibitory potency with mutant TDP1^Y204F vs WT [4]
O=C(O)c1c[nH]c2c(S(=O)(=O)F)cccc2c1=O [Compound 2e] | covalent binding | +251.32 Da | – | – | – | –
O=C(O)c1c[nH]c2c(NCCS(=O)(=O)F)cccc2c1=O [Compound 2f] | does not form a covalent bond to Y204 | – | 13 fold | – | – | –
O=C(O)c1c[nH]c2c(-c3ccccc3NCCS(=O)(=O)F)cccc2c1=O [Compound 3b] | covalent attachment | +370.08 Da | – | – | – | –
O=C(O)c1c[nH]c2c(-c3ccccc3OS(=O)(=O)F)cccc2c1=O [Compound 3c] | formation of the covalent bond | +343.65 Da | – | – | – | –
O=C(O)c1c[nH]c2c(-c3ccc(OS(=O)(=O)F)cc3)cccc2c1=O [Compound 3e] | has not formed any covalent bond | – | – | – | – | –
O=C(NCc1ccccc1)c1ccc(-c2cccc3c(=O)c(C(=O)O)c[nH]c23)c(OS(=O)(=O)F)c1 [Compound 3f, 8-(4-(benzylcarbamoyl)-2-((fluorosulfonyl)oxy)phenyl)-4-oxo-1,4-dihydroquinoline-3-carboxylic acid] | covalent bond with the side chain of Y204 | +476.57 Da | 38 fold | 5 to 10 fold | 1.9 fold | 32 fold
